Assay results: US20080248030A1, “Method of Treating Angiogenic Diseases” (Children's Medical Center Corporation, priority 2005, published 2008)

Legend:
A2058 human melanoma = test: Antitumor activity on SCID mice bearing s.c. A2058 human melanoma; format: in vivo; settings: s.c. A2058 study
Text: Each group consisted of 5 mice.

Early mouse development = settings: injected into 7 and 17 day-old BALB/c mice
LLC = test: Antitumor activity on C57BL/6J mice bearing s.c. LLC; settings: 30 mg/kg q.o.d., data not shown

For “N-(2-lydroxypropyl)methacrylamide (HPMA) copolymer-TNP-470 conjugate [HPMA copolymer-TNP-470]”, the water solubility (Water solubility) was “became soluble”, the “deaths due to toxicity, weight loss” value (A2058 human melanoma) was “neither deaths due to toxicity nor weight loss” and the “effect on normal development (weight gain)” value (Early mouse development) was “developed similarly to the control group”. The “induction of weight loss” value (LLC) was “did not induce weight loss”.
